Molecular target: CAL (CFTR-associated ligand) PDZ domain, tag-free CALP (UniProt Q9HD26-2 276-362)
Experiment: fluorescence polarisation; apparent KD; protein treated with DMSO (control), dialysed, serial dilutions of protein with the reporter F*-iCAL36; 25 mM sodium phosphate, 150 mM sodium chloride, 0.02% sodium azide, pH 6.8; room temperature
Conditions: both partners purified

B1: F*-iCAL36, fluorescein-labelled peptide inhibitor iCAL36 (peptide)
peptide: ANSRWPTSII
modifications: N-terminal fluorescein coupled via an amino-hexanoic acid linker
notes: also called reporter ligand; source: synthetic peptide
- Kd: 1290 nM

— paper PMC6435542, “Cysteine modifiers suggest an allosteric inhibitory site on the CAL PDZ domain” (Bioscience Reports, 2018)
